Results reported in patent US11618753B2 (priority 2018, dated 2023).

By UniProt entry, the sequences of proteins in these tests, tags left out. Where a name states a change or a piece, a line headed by the entry shows the natural chain unless it says otherwise.
UniProt O00329: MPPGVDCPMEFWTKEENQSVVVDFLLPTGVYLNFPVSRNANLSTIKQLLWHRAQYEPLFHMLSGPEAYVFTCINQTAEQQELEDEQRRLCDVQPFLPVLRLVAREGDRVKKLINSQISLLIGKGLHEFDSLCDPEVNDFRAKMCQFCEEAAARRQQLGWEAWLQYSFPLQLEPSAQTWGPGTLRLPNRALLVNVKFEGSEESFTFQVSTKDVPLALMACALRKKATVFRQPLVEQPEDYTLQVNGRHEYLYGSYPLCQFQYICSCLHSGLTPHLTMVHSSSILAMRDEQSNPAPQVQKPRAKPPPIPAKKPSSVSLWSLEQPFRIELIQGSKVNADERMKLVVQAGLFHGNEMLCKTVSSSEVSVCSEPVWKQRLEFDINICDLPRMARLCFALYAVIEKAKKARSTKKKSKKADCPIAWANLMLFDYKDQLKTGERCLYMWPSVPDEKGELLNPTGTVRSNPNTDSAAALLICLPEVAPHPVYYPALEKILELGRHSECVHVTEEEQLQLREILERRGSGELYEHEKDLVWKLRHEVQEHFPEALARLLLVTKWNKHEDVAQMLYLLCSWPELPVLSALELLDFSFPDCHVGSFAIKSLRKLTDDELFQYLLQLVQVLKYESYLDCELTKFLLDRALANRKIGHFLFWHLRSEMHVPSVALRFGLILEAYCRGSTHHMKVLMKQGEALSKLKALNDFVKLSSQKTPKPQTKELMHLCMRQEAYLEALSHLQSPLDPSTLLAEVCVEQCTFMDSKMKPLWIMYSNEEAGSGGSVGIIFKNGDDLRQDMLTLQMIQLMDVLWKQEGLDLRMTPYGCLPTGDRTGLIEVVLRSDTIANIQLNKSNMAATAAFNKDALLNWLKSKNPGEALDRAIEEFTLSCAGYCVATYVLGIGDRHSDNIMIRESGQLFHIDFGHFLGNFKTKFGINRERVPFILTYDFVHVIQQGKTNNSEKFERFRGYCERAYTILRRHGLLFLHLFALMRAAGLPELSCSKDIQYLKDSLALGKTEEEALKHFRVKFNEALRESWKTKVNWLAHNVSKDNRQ

Legend:
[1] = test system: Female C57/B16 mice; settings: mouse, in vivo
[2] = biological target: GST-tagged PIK3Cδ in complex with PIK3R1 (Homo sapiens (Human), UniProt O00329); assay: biochemical

Compound	IC50 [2] [µM]	other results
COc1ncc(-c2cc(C(F)(F)F)c3c(N)ncnn23)cc1C(=O)N[C@@H]1CN(C(=O)CC(C)(O)C(F)(F)F)C[C@@H]1F (stereo partly drawn) [Example 1224, 5-[4-amino-5-(trifluoromethyl)pyrrolo[2,1-f][1,2,4]triazin-7-yl]-N-[(3R,4S)-4-fluoro-1-(4,4,4-trifluoro-3-hydroxy-3-methylbutanoyl)pyrrolidin-3-yl]-2-methoxypyridine-3-carboxamide]		% protection from body temperature decrease [1]: 72%; % reduction in IL6 serum cytokines [1]: 88%; % reduction in KC serum cytokines [1]: 65%
COc1ncc(-c2cc(OC(F)F)c3c(N)ncnn23)cc1C(=O)N[C@@H]1CN(C(=O)[C@@](C)(O)C(F)(F)F)C[C@@H]1F [Example 1606, 5-[4-amino-5-(difluoromethoxy)pyrrolo[2,1-f][1,2,4]triazin-7-yl]-N-[(3R,4S)-4-fluoro-1-[(2R)-3,3,3-trifluoro-2-hydroxy-2-methylpropanoyl]pyrrolidin-3-yl]-2-methoxypyridine-3-carboxamide]	0.437	
COc1ncc(-c2cc(CN3CC(F)(F)C3)c3c(N)ncnn23)cc1C(=O)N[C@@H]1CN(C(=O)[C@@](C)(O)C(F)(F)F)C[C@@H]1F [Example 1616, 5-{4-amino-5-[(3,3-difluoroazetidin-1-yl)methyl]pyrrolo[2,1-f][1,2,4]triazin-7-yl}-N-[(3R,4S)-4-fluoro-1-[(2R)-3,3,3-trifluoro-2-hydroxy-2-methylpropanoyl]pyrrolidin-3-yl]-2-methoxypyridine-3-carboxamide]	14.8	
COc1ncc(-c2cc(CN3CCC(F)(F)CC3)c3c(N)ncnn23)cc1C(=O)N[C@@H]1CN(C(=O)c2ccccc2F)C[C@@H]1F [Example 1626, 5-{4-amino-5-[(4,4-difluoropiperidin-1-yl)methyl]pyrrolo[2,1-f][1,2,4]triazin-7-yl}-N-[(3R,4S)-4-fluoro-1-(2-fluorobenzoyl)pyrrolidin-3-yl]-2-methoxypyridine-3-carboxamide]	6.27	
COc1cc(F)c(-c2cc(CN3CCC(F)(F)CC3)c3c(N)ncnn23)cc1C(=O)N[C@@H]1CN(C(=O)C2CC(F)(F)C2)C[C@@H]1F [Example 1633, 5-{4-amino-5-[(4,4-difluoropiperidin-1-yl)methyl]pyrrolo[2,1-f][1,2,4]triazin-7-yl}-N-[(3R,4S)-1-(3,3-difluorocyclobutanecarbonyl)-4-fluoropyrrolidin-3-yl]-4-fluoro-2-methoxybenzamide]	5.11	
COc1cc(F)c(-c2cc(CN3CCC(F)(F)CC3)c3c(N)ncnn23)cc1C(=O)N[C@@H]1CN(C(=O)C(C)(C)C(F)(F)F)C[C@@H]1F [Example 1638, 5-{4-amino-5-[(4,4-difluoropiperidin-1-yl)methyl]pyrrolo[2,1-f][1,2,4]triazin-7-yl}-4-fluoro-N-[(3R,4S)-4-fluoro-1-(3,3,3-trifluoro-2,2-dimethylpropanoyl)pyrrolidin-3-yl]-2-methoxybenzamide]	7.85	
COc1cc(F)c(-c2cc(CN3CCC(C(F)(F)F)CC3)c3c(N)ncnn23)cc1C(=O)N[C@@H]1CN(C(=O)[C@@](C)(O)C(F)(F)F)C[C@@H]1F [Example 1639, 5-(4-amino-5-{[4-(trifluoromethyl)piperidin-1-yl]methyl}pyrrolo[2,1-f][1,2,4]triazin-7-yl)-4-fluoro-N-[(3R,4S)-4-fluoro-1-[(2R)-3,3,3-trifluoro-2-hydroxy-2-methylpropanoyl]pyrrolidin-3-yl]-2-methoxybenzamide]	> 15	
Cc1ccc(-c2cc(CN3CCC(C(F)(F)F)CC3)c3c(N)ncnn23)cc1C(=O)N[C@@H]1CN(C(=O)[C@@](C)(O)C(F)(F)F)C[C@@H]1F [Example 1647, 5-(4-amino-5-{[4-(trifluoromethyl)piperidin-1-yl]methyl}pyrrolo[2,1-f][1,2,4]triazin-7-yl)-N-[(3R,4S)-4-fluoro-1-[(2R)-3,3,3-trifluoro-2-hydroxy-2-methylpropanoyl]pyrrolidin-3-yl]-2-methylbenzamide]	7.94	
Cc1cc(F)c(-c2cc(CN3CCC(F)(F)CC3)c3c(N)ncnn23)cc1C(=O)N[C@@H]1CN(C(=O)C2CC2(F)F)C[C@@H]1F (stereo partly drawn) [Example 1655, 5-{4-amino-5-[(4,4-difIuoropiperidin-1-yl)methyl]pyrrolo[2,1-f][1,2,4]triazin-7-yl}-N-[(3R,4S)-1-(2,2-difluorocyclopropanecarbonyl)-4-fluoropyrrolidin-3-yl]-4-fluoro-2-methylbenzamide]	5.57	
Cc1cc(F)c(-c2cc(CN3CCC(F)(F)CC3)c3c(N)ncnn23)cc1C(=O)N[C@@H]1CN(C(=O)CC(O)(C(F)(F)F)C(F)(F)F)C[C@@H]1F [Example 1656, 5-{4-amino-5-[(4,4-difIuoropiperidin-1-yl)methyl]pyrrolo[2,1-f][1,2,4]triazin-7-yl}-4-fluoro-N-[(3R,4S)-4-fluoro-1-[4,4,4-trifluoro-3-hydroxy-3-(trifluoromethyl)butanoyl]pyrrolidin-3-yl]-2-methylbenzamide]	5.26	
Cc1cc(F)c(-c2cc(CN3CCC(F)(F)CC3)c3c(N)ncnn23)cc1C(=O)N[C@@H]1CN(C(=O)[C@@](C)(O)C(F)(F)F)C[C@@H]1F [Example 1658, 5-{4-amino-5-[(4,4-difIuoropiperidin-1-yl)methyl]pyrrolo[2,1-f][1,2,4]triazin-7-yl}-4-fluoro-N-[(3R,4S)-4-fluoro-1-[(2R)-3,3,3-trifluoro-2-hydroxy-2-methylpropanoyl]pyrrolidin-3-yl]-2-methylbenzamide]	9.15	
Cc1cc(F)c(-c2cc(CN3CCC(F)(F)CC3)c3c(N)ncnn23)cc1C(=O)N[C@@H]1CN(C(=O)CC(C)C)C[C@@H]1F [Example 1659, 5-{4-amino-5-[(4,4-difIuoropiperidin-1-yl)methyl]pyrrolo[2,1-f][1,2,4]triazin-7-yl}-4-fluoro-N-[(3R,4S)-4-fluoro-1-(3-methylbutanoyl)pyrrolidin-3-yl]-2-methylbenzamide]	> 15	
Cc1cc(F)c(-c2cc(CN3CCC(F)(F)CC3)c3c(N)ncnn23)cc1C(=O)N[C@@H]1CN(C(=O)C(C)(C)F)C[C@@H]1F [Example 1660, 5-{4-amino-5-[(4,4-difluoropiperidin-1-yl)methyl]pyrrolo[2,1-f][1,2,4]triazin-7-yl}-4-fluoro-N-[(3R,4S)-4-fluoro-1-(2-fluoro-2-methylpropanoyl)pyrrolidin-3-yl]-2-methylbenzamide]	> 15	
COc1ncc(-c2cc(C(F)(F)F)c3c(N)ncnn23)cc1C(=O)NC1CCCC(c2ccccc2)C1 (stereo not shown) [Example 1689, 5-(4-amino-5-(trifluoromethyl)pyrrolo[2,1-f][1,2,4]triazin-7-yl)-2-methoxy-N-(3-phenylcyclohexyl)nicotinamide]	> 5	
COc1ncc(-c2cc(CN3CCCCN3)c3c(N)ncnn23)cc1C(=O)N[C@@H]1CN(C(=O)C2CC(F)(F)C2)C[C@@H]1F [Example 1716, 5-(4-amino-5-((tetrahydropyridazin-1(2H)-yl)methyl)pyrrolo[2,1-f][1,2,4]triazin-7-yl)-N-((3R,4S)-1-(3,3-difluorocyclobutane-1-carbonyl)-4-fluoropyrrolidin-3-yl)-2-methoxynicotinamide]	12.7	
COc1ncc(-c2cc(CN3CCOCC3)c3c(N)ncnn23)cc1C(=O)N[C@@H]1CN(C(=O)OCC(F)(F)F)C[C@@H]1F [Example 1717, 2,2,2-trifluoroethyl (3R,4S)-3-(5-(4-amino-5-(morpholinomethyl)pyrrolo[2,1-f][1,2,4]triazin-7-yl)-2-methoxynicotinamido)-4-fluoropyrrolidine-1-carboxylate]	> 15	
COc1ncc(-c2cc(CN3CCOCC3)c3c(N)ncnn23)cc1C(=O)N[C@@H]1CN(S(=O)(=O)CCC(F)(F)F)C[C@@H]1F [Example 1718, 5-(4-amino-5-(morpholinomethyl)pyrrolo[2,1-f][1,2,4]triazin-7-yl)-N-((3R,4S)-4-fluoro-1-((3,3,3-trifluoropropyl)sulfonyl)pyrrolidin-3-yl)-2-methoxynicotinamide]	> 15	
COc1ncc(-c2cc(CN3CCOCC3)c3c(N)ncnn23)cc1C(=O)N[C@@H]1CN(S(=O)(=O)CC(F)(F)F)C[C@@H]1F [Example 1719, 5-(4-amino-5-(morpholinomethyl)pyrrolo[2,1-f][1,2,4]triazin-7-yl)-N-((3R,4S)-4-fluoro-1-((2,2,2-trifluoroethyl)sulfonyl)pyrrolidin-3-yl)-2-methoxynicotinamide]	> 15	
Cc1ncc(-c2cc(C(F)(F)F)c3c(N)ncnn23)cc1C(=O)Nc1ccn(Cc2ccc(F)cc2)n1 [Example 1810, 5-(4-amino-5-(trifluoromethyl)pyrrolo[2,1-f][1,2,4]triazin-7-yl)-N-(1-(4-fluorobenzyl)-1H-pyrazol-3-yl)-2-methylnicotinamide]	0.053	
Cc1ccc(-c2cc(C(F)(F)F)c3c(N)ncnn23)cc1C(=O)Nc1ccn(Cc2ccc(F)cc2)n1 [Example 1811, 5-(4-amino-5-(trifluoromethyl)pyrrolo[2,1-f][1,2,4]triazin-7-yl)-N-(1-(4-fluorobenzyl)-1H-pyrazol-3-yl)-2-methylbenzamide]	0.148	
Cc1ncc(-c2cc(C(F)(F)F)c3c(N)ncnn23)cc1C(=O)Nc1cc(C)n(Cc2ccc(F)cc2)n1 [Example 1812, 5-(4-amino-5-(trifluoromethyl)pyrrolo[2,1-f][1,2,4]triazin-7-yl)-N-(1-(4-fluorobenzyl)-5-methyl-1H-pyrazol-3-yl)-2-methylnicotinamide]	0.261	
Cc1ncc(-c2cc(C(F)(F)F)c3c(N)ncnn23)cc1C(=O)Nc1cn(C(c2ccc(F)cc2)C(F)(F)F)cn1 (stereo not shown) [Example 1819, 5-(4-amino-5-(trifluoromethyl)pyrrolo[2,1-f][1,2,4]triazin-7-yl)-2-methyl-N-(1-(2,2,2-trifluoro-1-(4-fluorophenyl)ethyl)-1H-imidazol-4-yl)nicotinamide]	1.41	
[2H]C([2H])([2H])Oc1ncc(-c2ccc3c(N)ncnn23)cc1C(=O)N[C@@H]1CN(C(=O)[C@@](C)(O)C(F)(F)F)C[C@@H]1F [Example 1836, 5-(4-aminopyrrolo[2,1-f][1,2,4]triazin-7-yl)-N-((3R,4S)-4-fluoro-1-((R)-3,3,3-trifluoro-2-hydroxy-2-methylpropanoyl)pyrrolidin-3-yl)-2-(methoxy-d3)nicotinamide]	> 15	
